PubChem BioAssay AID1246 (Columbia University Molecular Screening Center, 2008)
This is a selection; strong and weak results do not stand in their true shares. Activity calls are given as the source filed them.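 The calls were made as follows: active = inhibition above the batch mean plus 3 SD, and confirmed as a hit on visual image review (cut at about 43% in these data); inconclusive = passes the inhibition cutoff but fails visual image review; inactive = the rest.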

assay: E-selectin induction blockers in HUVEC – imaging, immunofluorescence, high content, primary screen (AID 1246); conditions: HUVEC TNFa-induced E-selectin immunofluorescence, at 2 µM, active compounds read high;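 also: 0% = TNF-stimulated DMSO wells and 100% = unstimulated control wells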

Q: Which inhibition does the source give for `CN1CCN(CCOC(=O)C(O)(c2ccccc2)c2ccccc2)CC1` here?
A: inactive: 2.91%

Q: With `COc1ccc(NC2CCN(C(=O)OC(C)(C)C)CC2)cc1` as the molecule, how does the inhibition read?
A: inactive: -23.2%

Q: Which inhibition does the source give for `O=C(NCC1(N2CCOCC2)CCCCC1)c1cc(=O)[nH]c2ccccc12` here?
A: inactive: -6.62%

Q: For `N#CC1(Nc2ccccc2)CCN(CCc2ccccc2)CC1`, which inhibition is on record?
A: inactive: 9.47%

Q: Which inhibition does the source give for `CN1CCC(Nc2cccc(F)c2)CC1` here?
A: inactive: -39.6%

Q: For `CN(C)c1cccc(C(=O)NCC2(N3CCCCC3)CCCCC2)c1`, which inhibition is on record?
A: inactive: -24.4%

Q: Which inhibition does the source give for `CCOC(=O)N1CCC(Nc2ccc(OC)cc2)CC1` here?
A: inactive: 32.9%

Q: With `O=C(NCC1(N2CCOCC2)CCCCC1)c1cc2ccccc2o1` as the molecule, how does the inhibition read?
A: inactive: 8.32%

Q: For `CCN1CCC(Nc2cccc(F)c2)CC1`, which inhibition is on record?
A: inactive: 14.6%

Q: For `CCC(CO)(C(=O)OC1CN2CCC1CC2)c1ccccc1` (centres undefined), which inhibition is on record?
A: inactive: -10.9%

Q: For `CC(C)(C)OC(=O)N1CCC(Nc2ccccc2)CC1`, which inhibition is on record?
A: inactive: -22.2%

Q: Which inhibition does the source give for `CCOc1ncccc1C(=O)NCC1(N2CCOCC2)CCCCC1` here?
A: inactive: -24%

Q: For `c1ccc(CN2CCC(Nc3ccccc3)CC2)cc1`, which inhibition is on record?
A: inactive: 0.96%

Q: With `N#Cc1ccc(C(=O)NCC2(N3CCCCC3)CCCCC2)cc1` as the molecule, how does the inhibition read?
A: inactive: -35.9%
